Like-named read-outs stand apart in the source and are kept apart here.

`CSCC[C@H](NC(=O)[C@H](Cc1ccccc1)NC(=O)CNC(=O)CNC(=O)[C@@H](N)Cc1ccc(O)cc1)C(=O)O` [OGF, Tyr-Gly-Gly-Phe-Met]: the stability following pre-incubation entry reads like this: (forced release conditions (16 hours at 37° C., pH 10.0)) “remained stable”; (physiological-like conditions (160 hours at 37° C., pH 7.5)) “remained stable”.

Values taken from patent US20110171165A1 (priority 2008, published 2011).
